US20240116998A1, “GLUCAGON-LIKE PEPTIDE-1 RECEPTOR ANTAGONISTS” (INDIANA UNIVERSITY RESEARCH AND TECHNOLOGY CORPORATION, priority 2021, published 2024)

The chains behind the UniProt entries cited, without tags or fusion partners. Where a name states a change or a piece, a line headed by the entry shows the natural chain unless it says otherwise.
UniProt P43220: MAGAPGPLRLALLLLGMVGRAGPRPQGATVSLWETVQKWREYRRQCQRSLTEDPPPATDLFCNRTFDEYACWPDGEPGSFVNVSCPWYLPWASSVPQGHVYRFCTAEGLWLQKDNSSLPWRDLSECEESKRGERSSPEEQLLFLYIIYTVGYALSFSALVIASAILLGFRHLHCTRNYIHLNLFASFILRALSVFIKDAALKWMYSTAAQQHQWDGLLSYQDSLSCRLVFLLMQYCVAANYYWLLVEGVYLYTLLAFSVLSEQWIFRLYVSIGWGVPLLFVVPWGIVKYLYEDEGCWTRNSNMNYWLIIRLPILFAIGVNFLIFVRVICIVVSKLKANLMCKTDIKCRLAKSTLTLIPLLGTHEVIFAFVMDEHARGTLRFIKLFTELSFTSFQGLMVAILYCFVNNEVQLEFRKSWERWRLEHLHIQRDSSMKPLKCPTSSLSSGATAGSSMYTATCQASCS

B1: Ex9-40amide, W11, K40(C18 diacid) (peptide)
peptide: DLWKQMEEEAVRLFIEWLKNGGPSSGAPPPSK
modifications: K40(C18 DiAcid); C-terminal amide (-NH2)
B2: Ex9-40amide, W11, K40(mPeg-γE-C18 diacid) (peptide)
peptide: B1 peptide
modifications: K40(mPeg-gE(C18 diacid)); C-terminal amide (-NH2)

Biological target: human GLP-1 receptor (human, UniProt P43220 24-463)
Assay: cell-based or functional assay

Row | Binder | IC50(nM) (cAMP luciferase reporter, antagonism of 0.05 nM GLP-1)
1 | B1 | 43
2 | B2 | 87
